{
  "source": "patent US11963941B2",
  "about": "“Use of a fasting mimicking diet to enhance the efficacy of antiestrogens in cancer” (UNIVERSITA' DEGLI STUDI DI GENOVA, priority 2016, dated 2024)",
  "tested_on": "ZR-75-1 cells",
  "key": {"[1]": {"conditions": "FMD + tamoxifen 5 μM, 24 h, FIG. 3"}},
  "data": [
    {"smiles": "CC/C(=C(\\c1ccccc1)c1ccc(OCCN(C)C)cc1)c1ccccc1", "note": "[tamoxifen]", "values": [
      {"measurement": "4E-BP1 phosphorylation state", "setting": "[1]", "result": "marked accumulation of the unphosphorylated form"},
      {"measurement": "mTOR activity (levels of phosphorylated p70S6K and eIF4E)", "setting": "[1]", "result": "marked inhibition of mTOR activity"},
      {"measurement": "RAD51 expression at the protein level", "setting": "FMD + tamoxifen 5 μM, 24 h, FIG. 6B", "result": "strong RAD51 downregulation"},
      {"measurement": "HER2 expression", "setting": "FMD in combination with tamoxifen 5 μM, FIG. 3", "result": "marked reduction in HER2 expression"}
    ]}
  ]
}
